Test results taken from PubChem BioAssay (Tox21).
“And” between values parts separate entries of the source, which are not always exact repeats. Identical values can stand only once. Only a part is listed here, and it is no random draw. Inconclusive results are not listed. The source made the active and inactive calls. Calls come from the whole dose curve.

Experiment: qHTS assay for small molecule disruptors of the mitochondrial membrane potential - cell viability (AID 720634);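 note: human HepG2 liver cancer cells; nearly all actives have a fitted effect of over 20% in size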
Details: HepG2 viability, ATP luminescence (CellTiter-Glo), 1 h; at 39.1 µM (top of the series)
Description: U.S. Tox21 Program National Center for Advancing Translational Sciences [NCATS] NIH Chemical Genomics Center [NCGC] U.S. Environmental Protection Agency [EPA] National Institutes of Environmental Health Sciences [NIEHS] National Toxicology Program [NTP] U.S. Food and Drug Administration [FDA] Tox21 Assay Overview: Mitochondrial membrane potential (MMP), one of the parameters for mitochondrial function, is generated by mitochondrial electron transport chain that creates an electrochemical gradient by a series of redox reactions. This gradient drives the synthesis of ATP, a crucial molecule for various cellular processes. Measuring MMP in living cells is commonly used to assess the effect of chemicals on mitochondrial function; decreases in MMP can be detected using lipophilic cationic fluorescent dyes. […] The dye accumulates in the mitochondria of healthy cells as aggregates, with red fluorescence. The mitochondrial potential decreases and the dye could not accumulate in the mitochondria and remains in the cytoplasm in monomers, with green fluorescence. In addition to the mitochondrial potential assay, these cells were also used to test the cytotoxicity by determining the cell viability in the culture based on the quantitation of ATP present. The cytotoxicity was measured in the same assay well of MMP assay.
Tox21 Assay Protocol Summary: 2,000 HepG2 cells in 5 uL/well were dispensed into black, clear-bottom 1536-well plates using a Multidrop Combi (Thermo Scientific) dispenser. The assay plates were incubated for an overnight at 37 C to allow cells to attach to the wells, followed by the transfer of 23 nL compound or DMSO vehicle by a pin tool (Kalypsys). The plates were incubated for 1 hr at 37 C and 5% CO2, followed by the addition of 5 uL of 2X m-MPI dye into each well using Flying Reagent Dispenser (Aurora Discovery) and then CellTiter-Glo reagent was added at 4 uL/well and incubated 30 min at room temperature. Then luminescence intensity was quantified on a ViewLux CCD-based plate reader.
% is set by controls: 0 for no effect and ±100 for the full control effect.

| SMILES | activity change, negative = cytotoxicity |
| --- | --- |
| C/C1=C2N=C(/C=C3N=C(/C(C)=C4\[N-][C@@](C)([C@@H]5N=C1[C@](C)(CCC(=O)NC[C@@H](C)OP(=O)([O-])O[C@H]1[C@@H](O)[C@@H](n6cnc7cc(C)c(C)cc76)O[C@@H]1CO)[C@H]5CC(N)=O)[C@@](C)(CC(N)=O)[C@@H]4CCC(N)=O)[C@@](C)(CC(N)=O)[C@@H]\3CCC(N)=O)C(C)(C)[C@@H]/2CCC(N)=O.[C-]#N.[Co+3] | inactive: -4.95% |

Same assay, conditions: HepG2 viability, ATP luminescence (CellTiter-Glo), 1 h; at 83.2 µM (top of the series)

| SMILES | activity change, negative = cytotoxicity |
| --- | --- |
| CCOP(=O)(CC)Oc1ccc([N+](=O)[O-])cc1 (stereo not given) | inactive: 7.83% |
| COc1ccc([N+](=O)[O-])cc1[N+](=O)[O-] | inactive: -7.09% |
| Cc1c([N+](=O)[O-])cccc1[N+](=O)[O-] | inactive: 4.27% and inactive: -5.83% |
| CP(=O)(O)OCCC[Si](O)(O)O | inactive: 7.12% |
| [NH4+].[O-][Cl+3]([O-])([O-])[O-] | inactive: -1.25% |
| CN(C)CCS | inactive: -7.7% |
| CCOP(=O)(CC)OCC | inactive: 2.06% |
| Cc1cccc([N+](=O)[O-])c1[N+](=O)[O-] | inactive: -19.8% |
| COP(C)(=O)OC | inactive: -0.207% |
| OCCSCCO | inactive: -2.66% |
| O=[N+]([O-])c1cccc([N+](=O)[O-])c1 | inactive: 12.9% |
| Cc1ccc([N+](=O)[O-])cc1[N+](=O)[O-] | inactive: -1.5% and inactive: 13.2% |
| CC(C)N(CCO)C(C)C | inactive: 8.73% |
| CC(C)OP(=O)(F)OC(C)C | inactive: 6.37% |
| CC(C)N(CCCl)C(C)C | inactive: -6.99% |
| Cc1ccc([N+](=O)[O-])c([N+](=O)[O-])c1 | inactive: -6.61% |
| CC(C)OP(C)(=O)OC(C)C | inactive: 4.61% and inactive: 10.8% |
| O=[N+]([O-])OCC(CO[N+](=O)[O-])(CO[N+](=O)[O-])CO[N+](=O)[O-] | inactive: 11.5% and inactive: -3.68% |

Same assay, conditions: HepG2 viability, ATP luminescence (CellTiter-Glo), 1 h; at 95.3 µM (top of the series)

| SMILES | activity change, negative = cytotoxicity |
| --- | --- |
| N=C(N)N[N+](=O)[O-] | inactive: 6.08% |
| [NH4+].[O-][Cl+3]([O-])([O-])[O-] | inactive: 16.2% |
| CCN(CC)CCCl | inactive: 7.09% |
| COP(C)(=O)OC | inactive: 4.57% |
| OCCSCCO | inactive: 3.55% |
| O=[N+]([O-])c1cccc([N+](=O)[O-])c1 | inactive: -20.3% |
